# Experimental data: ChEMBL document CHEMBL2169744, “Discovery and optimization of potent and selective imidazopyridine and imidazopyridazine mTOR inhibitors” (Bioorg Med Chem Lett, 2012)
# Assay: Selectivity ratio of IC50 for PI3Kalpha to IC50 for mTOR
row,SMILES,Ratio IC50
1,COc1ncccc1-c1ccc2nc(Nc3cc[nH]n3)c(-c3nc(C)nc(N)n3)n2c1,7
2,CNc1cc(-c2c(Nc3cc[nH]n3)nc3cccnn23)nc(C)n1,18
3,Cc1nc(N)nc(-c2c(Nc3cc[nH]n3)nc3ccc(-c4cncnc4)cn23)n1,37
4,Cc1cc(-c2ccc3nc(Nc4cc[nH]n4)c(-c4nc(C)nc(N)n4)n3c2)on1,71
5,CC(=O)Nc1cccc(-c2ccc3nc(Nc4cc[nH]n4)c(-c4nc(C)nc(N)n4)n3c2)c1,9
6,CC(=O)Nc1cc(-c2c(Nc3ccn(C)n3)nc3ccccn23)nc(C)n1,68
7,Cc1nc(Nc2cnccn2)cc(-c2c(Nc3cc[nH]n3)nc3cccnn23)n1,21
8,Cc1cc(-c2ccc3nc(Nc4cc[nH]n4)c(-c4nc(C)nc(N)n4)n3c2)ccn1,64
9,CC(=O)Nc1cc(-c2c(Nc3cc[nH]n3)nc3ccccn23)nc(C)n1,12
10,Cc1nc(N)nc(-c2c(Nc3cc[nH]n3)nc3ccc(-c4ccccc4C)cn23)n1,19
11,Cc1nccc(-c2c(Nc3cc[nH]n3)nc3cccnn23)n1,21
12,CC(=O)Nc1cc(-c2c(Nc3ccn(C)n3)nc3cccnn23)nc(C)n1,30
13,Cc1nc(N)nc(-c2c(Nc3ccn(C)n3)nc3ccc(-c4cncnc4)cn23)n1,8
14,Cc1nc(N)nc(-c2c(Nc3cc[nH]n3)nc3ccc(-c4ccncc4)cn23)n1,55
15,Cc1nc(Nc2cccnc2)cc(-c2c(Nc3cc[nH]n3)nc3cccnn23)n1,8
16,CC(=O)Nc1cc(-c2c(Nc3ccn(C)n3)nc3ccc(-c4cnco4)cn23)nc(C)n1,161
17,Cc1nc(N)nc(-c2c(Nc3cc[nH]n3)nc3ccc(-c4cccnc4C)cn23)n1,48
18,Cc1nc(N)nc(-c2c(Nc3cc[nH]n3)nc3ccc(-c4cnccc4C)cn23)n1,47
19,CC(=O)Nc1cc(-c2c(Nc3cc[nH]n3)nc3cccnn23)nc(C)n1,13
